Laboratory results reported in ChEMBL document CHEMBL1128283, “Novel modified carboxy terminal fragments of neuropeptide Y with high affinity for Y2-type receptors and potent functional antagonism at a Y1-type receptor” (J Med Chem, 1995).

Sequences of proteins named here, by UniProt entry; tags and fusion partners are left off.
UniProt Q9ERC0, whole entry: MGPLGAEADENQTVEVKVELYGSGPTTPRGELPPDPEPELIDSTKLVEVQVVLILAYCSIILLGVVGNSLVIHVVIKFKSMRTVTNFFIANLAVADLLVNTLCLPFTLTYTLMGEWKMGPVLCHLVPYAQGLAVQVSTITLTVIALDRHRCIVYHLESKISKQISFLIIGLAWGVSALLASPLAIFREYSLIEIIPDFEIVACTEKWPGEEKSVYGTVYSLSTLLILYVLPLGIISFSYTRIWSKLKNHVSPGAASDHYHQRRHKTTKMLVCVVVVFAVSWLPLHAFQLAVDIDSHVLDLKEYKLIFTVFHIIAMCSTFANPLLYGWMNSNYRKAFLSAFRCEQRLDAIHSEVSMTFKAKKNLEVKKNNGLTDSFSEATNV

Molecular target: Neuropeptide Y receptor type 2 (Rattus norvegicus, UniProt Q9ERC0)
Experiment: 50% displacement of specifically bound [3H]NPY2 from rat brain membranes.
Assay type: cell membranes, Membrane

IC50: 40 µM
Compound: CSCC[C@H](NC(=O)[C@@H](N)Cc1ccccc1)C(=O)N[C@@H](CCCN=C(N)N)C(=O)N[C@@H](Cc1ccccc1)C(N)=O
